Earlier results on 1 compound are cited in publication PMC11054528, “Evaluation of Physicochemical Properties of Ipsapirone Derivatives Based on Chromatographic and Chemometric Approaches” (Molecules, 2024).

Amino acid sequences for entries named in this document (tags omitted). Residues count along the entry.
UniProt P02768, 25-609: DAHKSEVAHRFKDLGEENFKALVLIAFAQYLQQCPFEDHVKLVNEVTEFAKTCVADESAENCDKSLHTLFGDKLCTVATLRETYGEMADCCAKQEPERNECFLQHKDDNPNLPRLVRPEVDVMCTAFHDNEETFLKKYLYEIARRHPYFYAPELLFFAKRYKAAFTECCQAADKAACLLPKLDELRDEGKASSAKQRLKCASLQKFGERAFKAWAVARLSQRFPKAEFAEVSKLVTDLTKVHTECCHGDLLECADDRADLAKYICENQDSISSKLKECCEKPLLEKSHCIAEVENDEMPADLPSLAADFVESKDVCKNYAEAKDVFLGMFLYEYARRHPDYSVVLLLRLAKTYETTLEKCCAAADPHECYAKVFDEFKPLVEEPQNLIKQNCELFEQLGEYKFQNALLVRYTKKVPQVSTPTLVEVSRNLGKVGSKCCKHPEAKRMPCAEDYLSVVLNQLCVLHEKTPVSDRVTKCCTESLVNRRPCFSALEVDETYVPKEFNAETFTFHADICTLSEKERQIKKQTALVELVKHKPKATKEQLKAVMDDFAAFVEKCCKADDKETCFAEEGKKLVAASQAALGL

Molecules are shown by their SMILES.

This data set concerns the target human serum albumin (HSA) (Homo sapiens, UniProt P02768). Particulars: calibration mixture for HSA-HPLC, reference value; column head printed CHI C18; cited from earlier work.

`NC(=O)N1c2ccccc2C=Cc2ccccc21` [Carbamazepine]: the “HSA binding (HSA-HPLC calibration)” value is on record as 75.0%.
